Test results as given in patent publication US20160041146A1 (priority 2014, published 2016).

Type: in vivo, human
Description: Determining the amount of a drug in fluid of the subject may be accomplished by use of any method known to those skilled in the art. Non-limiting examples for determining the amount of a drug in fluid of a subject include fluorescence polarization immunoassay (“FPIA,” Abbott Diagnostics), mass spectrometry (MS), gas chromatography-mass spectrometry (GC-MS-MS), liquid chromatography-mass spectrometry (LC-MS-MS), and the like. In one embodiment, LC-MS-MS methods known to those skilled in the art are used to determine a raw level, amount or concentration of a drug in urine of the subject. In one embodiment, a raw level or concentration of a drug in urine of a subject is measured and reported as a ratio, percent, or in relationship to the amount of fluid. The amount of fluid may be expressed as a unit volume, for example, in L, mL, μL, pL, ounce, etc. In one embodiment, the raw amount of a drug in urine of a subject may be expressed as an absolute level or value, for example, in g, mg, μg, ng, pg, etc.
In an embodiment, the raw primary metabolite and secondary metabolite concentrations measured in urine of the subject are transformed and normalized (hereafter “Equation 3”): […]

Structure (SMILES): CN1CC[C@]23c4c5ccc(O)c4O[C@H]2C(=O)CC[C@H]3[C@H]1C5 [hydromorphone]
- median urine drug concentration (Hydrocodone model population, approximately 84,000 patient results over one year, average daily dosage 32 mg): 441 ng/mL
- Urine concentration (median) (patient validity data set for Hydrocodone model, 50 subjects, average hydrocodone dosage 26 mg): 612 ng/mL
